Data on one molecule can be found in article PMC9781916, “Antipsychotic- and Anxiolytic-like Properties of a Multimodal Compound JJGW08 in Rodents” (International Journal of Molecular Sciences, 2022).

The subject of the data set is mice. The experiment in a line: Catalepsy bar test in mice. Format: in vivo. The protocol:
The minimum cataleptogenic dose was defined as the lowest dose inducing a mean catalepsy score of ≥1 at 30, 60, or 120 min post-treatment.
Catalepsy was assessed using the bar method described by Ueki et al. with minor modifications. The front paws of the mice were placed on a cylindrical metal bar located 4 cm above the tabletop’s surface, while the hind paws remained on the tabletop. The time in which the animal held both paws on the bar was measured at 30, 60, and 120 min after the administration of the tested compound, with a maximum measurement time of 60 s. Each of the measurements consisted of placing the animal’s paws on the bar three times unless the mouse was on it for 60 s; then, no further trial was performed. The score for each trial was assessed as follows: • - 0 points if the animals held the constrained position < 15 s; • - 1 point when the animal stayed on the bar for 15–29.9 s; • - 2 points for when the animal stayed on the bar for 30–59.9 s; • - 3 points for staying on the bar for more than 60 s.
The minimum cataleptogenic dose was defined as the lowest dose inducing a mean catalepsy score of ≥1 at 30, 60, or 120 min post-treatment. The tested compound was administered ip at the dose range of 5–20 mg/kg.

On to `Cc1cc2c(s1)Nc1ccccc1N=C2N1CCN(C)CC1` [Olanzapine, reference compound], for which the “Mean Score (catalepsy)” value is on record as 0.8 (5 mg/kg ip, 30 min); 0.8 (5 mg/kg ip, 60 min); 0.7 (5 mg/kg ip, 120 min); 0.7 (10 mg/kg ip, 30 min); 1.6 (10 mg/kg ip, 60 min); 1.3 (10 mg/kg ip, 120 min). Moreover, the “Mean Score (catalepsy)” value is reported as 0.7 (20 mg/kg ip, 30 min); 2.0 (20 mg/kg ip, 60 min); 1.8 (20 mg/kg ip, 120 min). In addition, the “minimum (lowest) cataleptogenic dose” value (ip, lowest dose with mean catalepsy score ≥1 at 30, 60 or 120 min) is recorded as 10 mg/kg.
